Target: Streptococcus mutans sucrose phosphorylase (GtfA, S. mutans SP), wild type, gene gtfA SEQ ID NO:5 (Streptococcus mutans serotype c, UniProt P10249)
Details: read-out: Km(Pi), 25° C., pH 7.0

O=P(O)(O)O [Pi, inorganic phosphate]
Km: 15.3 mM
